From doi:10.1101/2025.05.02.651384v1 (biorxiv, 2025)

Amino acid sequences for entries named in this document (tags omitted).
UniProt Q9BXC0, whole entry: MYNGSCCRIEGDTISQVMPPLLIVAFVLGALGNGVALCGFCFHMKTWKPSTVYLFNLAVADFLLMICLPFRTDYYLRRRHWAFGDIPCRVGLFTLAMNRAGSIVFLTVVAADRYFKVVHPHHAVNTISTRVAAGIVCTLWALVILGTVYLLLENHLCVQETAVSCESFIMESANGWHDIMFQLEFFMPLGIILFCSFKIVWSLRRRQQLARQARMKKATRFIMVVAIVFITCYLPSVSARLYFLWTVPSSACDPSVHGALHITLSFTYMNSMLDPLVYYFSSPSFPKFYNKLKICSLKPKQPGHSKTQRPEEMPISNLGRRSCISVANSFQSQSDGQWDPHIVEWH

Target: HCAR1 (GPR81) (Homo sapiens, UniProt Q9BXC0)
Assay: ebBRET Gαi2 activation
Assay type: cell-based
Conditions: Gαi2, 37 °C, agonist

SMILES	EC50
CCOc1cc(Cl)c(C(=O)Nc2nc3ccc(S(=O)(=O)CCCN4CCN(C)CC4)cc3s2)cc1N1CCOCC1	1300 nM
CCOc1cc(Cl)c(C(=O)NC(=O)Nc2nc3ccc(S(=O)(=O)C4CCN(C)CC4)cc3s2)cc1-n1cccn1	750 nM
CCOc1cc(Cl)c(C(=O)NC(=O)Nc2nc3ccc(CN4CCN(C)CC4)cc3s2)cc1-c1ccn[nH]1	2500 nM
CCOc1cc(Cl)c(C(=O)NC(=O)Nc2nc3ccc(CN4CCN(C)CC4)cc3s2)cc1N1CCOCC1	480 nM
CCOc1cc(Cl)c(-c2ncc(-c3nc4ccc(S(=O)(=O)C5CCN(C)CC5)cc4s3)c(=O)[nH]2)cc1N1CCOCC1	1100 nM
CCOc1cc(Cl)c(C(=O)Nc2nc3ccc(S(=O)(=O)CCCN4CCN(C)CC4)cc3s2)cc1N1C[C@@H](C)O[C@@H](C)C1	230 nM
CCOc1cc(Cl)c(C(=O)NC(=O)Nc2nc3ccc(CN4CCN(C)CC4)cc3s2)cc1-n1cccn1	450 nM
